Laboratory results from US20030180179A1, “Chemical and biological decontamination material and system” (published 2003).

Tested on: Bacillus subtilis (ATCC #6461)

Substance: silver nitrate
- ZOI (CM): 3.7 CM
